# Tested on: TIL-matched patient-derived xenografts (hPDX)
# Test: Human PDX (hPDX) model with engineered matched TIL
# Type: in vivo, NSG mice
# Conditions: group 1, untransduced TIL plus hIL2 (benchmark control)
# Source text: To evaluate the effect of regulated mbIL15 on the anti-tumor activity of tumor infiltrating lymphocytes (TIL), a human PDX (hPDX) model is used. TIL are isolated from a patient tumor sample, for example, a head and neck tumor sample, as described in Example 6. TIL are transduced with BaEV-pseudotyped lentiviral vectors containing either the IL15-292 construct or the IL15-293 construct, as described in Example 6, or with BaEV-pseudotyped lentiviral empty vector (EV), and then optionally frozen. TIL-matched patient-derived xenografts (hPDX) from the tumor sample are established via subcutaneous implant into the right flank of NSG mice. Tumor growth is measured once or twice per week using calipers. On study start, tumors are measured, and mice are randomized and placed in cohorts based on similar mean tumor volume across all groups into new cages (N=8 for each group). The engineered matched TIL are thawed if necessary, stimulated with PMA, and then infused into the tumor-bearing mice. […]
# Group 1 receives untransduced TIL supplemented with recombinant human IL2 (hIL2) as benchmark control, and group 2 receives TIL transduced with constitutive mbIL15 (IL15-292). […] Blood (50 μL) was withdrawn from submandibular veins on pre-determined days. Red blood cells are lysed, stained with fluorochrome-conjugated antibodies against human CD45, CD3 and mouse CD45, and cells are analyzed by flow cytometry. […]
substance,measurement,value
hIL2: recombinant human IL2 given with untransduced TIL as benchmark control [reference compound],tumor growth,Delayed tumor growth
